Several values for one entry are separate records, joined by “and”; a condition that tells them apart may be missing. Equal entries are not always repeated. Marks after values point to notes of the source that are not given here.
Assays:
recombinant active Casp6 = recombinant active Casp6 (Homo sapiens, UniProt P55212, INS179NQTEKLDTNITEVD); assay: Colorimetric Ac-VEID-pNA cleavage assay; conditions: 200 µM Ac-VEID-pNA, 200 nM Casp6
Procedure: (§1) To assess the potency of in silico hits, a fluorescence-based Ac-VEID-AFC cleavage assay was used to measure recombinant active Casp6 reaction rate in the absence or presence of 100 µM concentration of compounds. A 30% inhibition cut off was arbitrarily chosen for further investigation of putative inhibitors. […] AFC signal interference by compound intrinsic fluorescence was ruled out (Fig. S4). Casp6 inhibition was confirmed for seven compounds (C7, C13, C14, S2, S10, S11 and S13) using a colorimetric Ac-VEID-pNA cleavage assay (Table 2, Fig. S3). […] The hits had IC50 values ranging from 13.2 µM to 289 µM (Table 2).
(§2) In fluorescence-based Casp6 activity assay, 10 µM Ac-VEID-AFC was added to 20 nM Casp6 in SB with 100 μM compound and 1% dimethyl sulfoxide (DMSO), and reaction rate was measured for 20 min at 37 °C as above. Compound potency was calculated by normalising Ac-VEID-AFC cleavage rate to 1% DMSO control. In colorimetric Casp6 activity assay, 200 µM Ac-VEID-pNA (N-acetyl-Val-Glu-Ile-Asp-p-nitroanilide, Enzo Life Sciences) was added to 200 nM Casp6 in SB with 100 μM compound, and Ac-VEID-pNA cleavage rate was measured at 37 °C for 30 min in clear 96-well plate (Sartstedt, Nümbrecht, Germany) using Synergy H4 plate reader at 405 nm. Absorbance was converted to the released pNA amount based on a standard curve of 0–250 µM pNA. Cleavage rates were calculated from the linear assay phase and were normalised to 1% DMSO control. In Casp6-C163A cleavage assay, 0.5 ng/µl Casp6-WT was preincubated with 100 µM inhibitor, 5 µM Q-VD-OPh or 1% DMSO in SB (30 min, RT), followed by transfer on ice, addition of 0.5 µg/µl Casp6-C163A, and incubation (37 °C, 5, 10 and 15 min). Reactions were stopped by adding SDS-PAGE sample buffer (62.5 mM Tris pH 6.8, 2% SDS, 0.1 M DTT, 0.01% Bromphenol Blue, 10% glycerol) and heating (5 min, 95 °C). Samples (2 µl) were analysed on 15% SDS-PAGE gels, proteins were stained with Coomassie blue, and gels were de-stained with 10% acetic acid. The intensities of protein bands were quantified from scanned gels using ImageJ. The band intensity of Casp6-C163A without a prodomain was plotted against the time and the Casp6-C163A cleavage rates were calculated from the slopes of linear plots. The % activity of Casp6-WT in the presence of inhibitors was calculated relative to DMSO control.

By UniProt entry, the sequences of proteins in these tests, tags left out. Where a name states a change or a piece, a line headed by the entry shows the natural chain unless it says otherwise. Chains listed by the source or under a name are the forms on record and can include a tag or linker. Residues count along the entry.
UniProt P55212, 194-293 limits assumed: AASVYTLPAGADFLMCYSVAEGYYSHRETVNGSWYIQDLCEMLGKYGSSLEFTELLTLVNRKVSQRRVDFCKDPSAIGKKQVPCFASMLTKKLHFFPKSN
UniProt P55212, 24-193 with tags or gaps with the stated changes limits assumed: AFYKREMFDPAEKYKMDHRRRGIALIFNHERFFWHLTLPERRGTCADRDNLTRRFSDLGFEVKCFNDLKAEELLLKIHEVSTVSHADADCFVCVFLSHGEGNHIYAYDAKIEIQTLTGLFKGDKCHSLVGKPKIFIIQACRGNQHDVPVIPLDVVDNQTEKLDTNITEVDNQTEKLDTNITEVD

active Casp6 (Casp6-WT) [1] = biological target: T1, active Casp6 (Casp6-WT) (Homo sapiens, UniProt P55212, INS179NQTEKLDTNITEVD); assay: Fluorescence-based Ac-VEID-AFC cleavage assay (Casp6 activity, IC50 determination); conditions: for % Inhibition with 100 µM compound (fluorescence assay) / IC50: 10 µM Ac-VEID-AFC; for % Inhibition with 100 µM compound (fluorescence assay): 20 nM Casp6, relative to 1% DMSO control; for IC50: fluorescence assay, 20 nM Casp6 active sites; for fold increase in IC50 (reduction in potency) compared to C13: Casp6-WT
Procedure: as §1
Casp6 active sites were quantified using zVAD-FMK (N-benzyloxycarbonyl-Val-Ala-Asp-(O-methyl)-fluoromethylketone, MP Biomedicals, Santa Ana, CA, USA)[51],[64]. Casp6 activity was measured in Stennicke’s buffer (SB: 20 mM piperazine-N,N′-bis-(2-ethanesulfonic acid) pH 7.2, 100 mM NaCl, 10 mM DTT, 1 mM EDTA, 0.1% 3-[(3-cholamidopropyl)-dimethylammonio]-2-hydroxy-1-propanesulfonic acid, 10% sucrose)[65] using 40 µM Ac-VEID-AFC (Ac-Val-Glu-Ile-Asp-7-Amino-4-trifluoromethylcoumarin, Enzo Life Sciences, Farmingdale, NY, USA)[64] and 10-250 nM active site titrated Casp6. Reactions were initiated by Ac-VEID-AFC addition and followed for 20 min at 37 °C in a black clear bottom 96-well microplate (Costar, Corning, NY, USA) in Synergy H4 Hybrid instrument (BioTek, Winooski, VT, USA) with excitation/emission at 380/505 nm. Released AFC was calculated from AFC standard curve (0-25 µM). Casp6 VEIDase activity (released pmol AFC/min) was calculated from the initial linear reaction part. Ac-VEID-AFC hydrolysis initial velocities were measured with 10 nM active-site titrated Casp6 and […] Ac-VEID-AFC. Initial velocities v versus substrate concentration [S] were fit to a rectangular hyperbola using Michaelis-Menten equation in GraphPad Prism 5 (GraphPad Software, La Jolla, CA, USA).
as §2
IC50 values were determined against 20 nM Casp6 active sites in fluorescence-based Casp6 activity assay with 10 µM Ac-VEID-AFC and 1 nM-500 µM inhibitor. […]

active Casp6 (Casp6-WT) [2] = biological target: T1, active Casp6 (Casp6-WT); assay: Casp6-C163A cleavage assay (prodomain cleavage of catalytically inactive Casp6-C163A by active Casp6); conditions: rate of Casp6-C163A prodomain cleavage vs DMSO control
Procedure: as §1, §2

% Inhibition with 100 µM compound (colorimetric assay) (recombinant active Casp6) | % Inhibition with 100 µM compound (fluorescence assay) (active Casp6 (Casp6-WT) [1]) | IC50 (active Casp6 (Casp6-WT) [1]) | % Inhibition with 100 µM compound (Casp6-C163A cleavage assay) (active Casp6 (Casp6-WT) [2]) | fold increase in IC50 (reduction in potency) compared to C13 (active Casp6 (Casp6-WT) [1]) | fold lower IC50 than S10 (active Casp6 (Casp6-WT) [1]; compared with IC50 of S10 (30.2 µM)) | SMILES
52.9 ± 4.1% | 31.8 ± 4.8% | 90 µM |  |  |  | Cc1nn(-c2ccccc2)c2sc(C(=O)Nc3c(C)n(C)n(-c4ccccc4)c3=O)cc12
92.0 ± 0.3% | 38.9 ± 5.5% | 44.1 µM |  |  |  | COc1cccc(CN2CCNC(=O)C2CC(=O)NCc2cnn(-c3ccccc3C)c2)c1 (stereo not shown)
64.4 ± 14.7% | 92.0 ± 6.7% | 10.5 µM |  |  |  | NC(=O)Cn1cc(C=C2C(=O)NC(=O)N(Cc3ccco3)C2=O)c2ccccc21
53.4 ± 10.4% | 92.3 ± 2.7% | 16.5 µM |  |  |  | COCCNC(=O)Cn1cc(C=C2C(=O)NC(=O)N(Cc3ccco3)C2=O)c2ccccc21
 | 89.0 ± 3.0% | 4.4 µM | 90.5 ± 5.2% |  |  | O=C(Cn1cc(C=C2C(=O)NC(=S)N(Cc3ccco3)C2=O)c2ccccc21)NCC1CCCO1 (stereo not shown)
46.8 ± 7.4% | 94.6 ± 1.1% | 12.8 µM |  |  |  | O=C1NC(=O)N(Cc2ccco2)C(=O)C1=Cc1cn(CC(=O)N2CCOCC2)c2ccccc12
 | 34.9 ± 5.1% | 110 µM | ~ 30% and 27.8 ± 14.0% |  |  | NC(=O)c1c(NC(=O)CSc2nc(-c3ccccc3)cc(=O)[nH]2)sc2c1CCCC2
 | 32.3 ± 4.3% | 123 µM |  |  |  | O=C(CCN1C(=O)C(=Cc2ccccc2Cl)SC1=S)NC12CC3CC(CC(C3)C1)C2
44.7 ± 4.7% | 59.3 ± 2.5% | 80 µM and 79.9 µM |  |  |  | O=C(Cn1cc(C(=O)COc2ccccc2)c2ccccc21)NCc1ccco1
43.7 ± 3.1% | 81.3 ± 3.3% | 16.4 µM |  |  |  | CC1CCCCN1C(=O)Cn1cc(C=C2C(=O)NC(=O)N(Cc3ccco3)C2=O)c2ccccc21 (stereo not shown)
52.5 ± 6.5% | 93.7 ± 0.8% | 12.9 µM |  |  |  | COCCCNC(=O)Cn1cc(C=C2C(=O)NC(=O)N(Cc3ccco3)C2=O)c2ccccc21
 | 24.7 ± 1.7^a % |  |  | 55 fold |  | COC(=O)c1cc(CNC(=O)c2cccc3c(C)c(C)[nH]c23)cc(NC(=O)c2ccco2)c1
60.2 ± 6.5% | 34.0 ± 5.0% | 142 µM |  |  |  | O=c1nc(CSc2nnnn2-c2ccc(Cl)cc2)[nH]c2ccccc12
62.9 ± 6.8% | 96.8 ± 0.7% | 11 µM |  |  |  | O=C1NC(=O)N(Cc2ccco2)C(=O)C1=Cc1cn(CC(=O)N2CCCCC2)c2ccccc12
 | 33.3 ± 4.8% | 46.4 µM | ~ 30% and 28.7 ± 7.4% |  |  | O=C(CC1C(=O)NCCN1Cc1ccc(F)cc1Cl)NC1CCCCCCC1 (stereo not shown)
 | 74.3 ± 5.8% | 16.8 µM | 81.8 ± 4.6% |  |  | COCCNC(=O)Cn1cc(C=C2C(=O)NC(=S)N(Cc3ccco3)C2=O)c2ccccc21
 | 21.8 ± 2.5^a % |  |  | 117 fold |  | COC(=O)c1cc(CNC(=O)C2Cc3ccccc3O2)cc(NC(=O)Cc2ccccc2)c1 (stereo not shown)
 | 81.7 ± 2.0% | 7.6 µM | 81.7 ± 3.4% |  | ~ 3.8 fold | O=C1NC(=S)N(Cc2ccco2)C(=O)C1=Cc1cn(CC(=O)N2CCOCC2)c2ccccc12
 | 30.3 ± 1.7% | 233 µM | ~ 30% and 23.8 ± 20.0% |  |  | Cc1nc(Nc2nc(CSc3ccccn3)cc(=O)[nH]2)nc2ccccc12
53.3 ± 7.8% | 96.3 ± 1.6% | 9.8 µM |  |  |  | O=C1NC(=O)N(Cc2ccco2)C(=O)C1=Cc1cn(CC(=O)N2CCCC2)c2ccccc12

— publication PMC6445123 (Scientific Reports, 2019)
